## Apparent affinities of Ab-14 variants for a coronavirus HR2 peptide

Reference: Engelhart et al. 2022, doi:10.1038/s41597-022-01779-4. File: FLAb, binding data.

The target is the same throughout: PDVDLGDISGINAS, from the HR2 region of SARS-CoV-2 spike.

Parent: Ab-14, a human scFv built as VH, a (GGGGS)3 linker, VL. Only the CDRs of the heavy chain vary.
VH: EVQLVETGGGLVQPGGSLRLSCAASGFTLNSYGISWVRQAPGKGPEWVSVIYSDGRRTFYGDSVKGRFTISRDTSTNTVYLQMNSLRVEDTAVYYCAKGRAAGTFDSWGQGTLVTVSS
VL: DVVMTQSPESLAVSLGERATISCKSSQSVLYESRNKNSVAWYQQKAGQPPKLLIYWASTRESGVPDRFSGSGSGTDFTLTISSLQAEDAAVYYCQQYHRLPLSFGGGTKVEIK

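Phage display of a naive human antibody library on the peptide gave the parent. Variants in AAYL49 differ from the parent at up to three CDR positions; double and triple changes were sampled at random. Affinity was read by AlphaSeq, a pooled yeast mating assay with surface-displayed partners. The frequency of each diploid, read from paired DNA barcodes, reflects how well the two displayed proteins bind. Each replicate has its own calibration line, from reference interactions of the BCL2 family. Mating was done three times.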

Positions count from residue 1 of the parent VH; S31A puts A in place of S. This list gathers variants with a substitution at S107 (VH, numbered from residue 1). Each Kd is an estimate from the mating assay, the geometric mean of the replicates in which the pair was seen; lower is stronger. "nd" marks a missing value. The strain was present, yet no cells mated with the target were sequenced in any replicate, which points to weak or no binding. As a blank, each scFv also met three strains without target: over library AAYL49, 15% of these pairings were detected, typically at 11 µM and seldom below 680 nM. The control count says in how many pairings with the empty strains this scFv gave a signal.

* S31A/S35H/S107I -> 20 nM (3 of 3 replicates; controls 2 of 9)
* V50D/G55M/S107P -> 19 µM (1 of 3 replicates; controls 0 of 9)
* Y52F/S107D -> 66 nM (3 of 3 replicates; controls 1 of 9)
* L29S/G99T/S107C -> 3.8 µM (2 of 3 replicates; controls 0 of 9)
* S107K -> 28 nM (3 of 3 replicates; controls 0 of 9)
* G33M/T58C/S107I -> nd (0 of 3 replicates; controls 0 of 9)
* S63K/K65A/S107I -> 74 nM (3 of 3 replicates; controls 5 of 9)
* G61Q/A101E/S107D -> 1.0 nM (3 of 3 replicates; controls 0 of 9)
* G26C/Y60G/S107H -> nd (0 of 3 replicates; controls 1 of 9)
* T28G/A102T/S107A -> 3.0 µM (1 of 3 replicates; controls 1 of 9)
* D54W/S107P -> nd (0 of 3 replicates; controls 2 of 9)
* G26Y/G61R/S107D -> 4.1 µM (3 of 3 replicates; controls 0 of 9)
* S63A/T104N/S107D -> 7.5 nM (3 of 3 replicates; controls 1 of 9)
* V50C/D106V/S107T -> 120 nM (3 of 3 replicates; controls 2 of 9)
* Y32S/R56Y/S107Q -> nd (0 of 3 replicates; controls 0 of 9)
* L29W/G99E/S107W -> 34 µM (1 of 3 replicates; controls 1 of 9)
* V64C/F105M/S107N -> 160 nM (3 of 3 replicates; controls 2 of 9)
* V50W/G103I/S107Y -> nd (0 of 3 replicates; controls 3 of 9)
* L29K/D54V/S107P -> nd (0 of 3 replicates; controls 1 of 9)
* L29Q/V64L/S107C -> 3.8 µM (1 of 3 replicates; controls 2 of 9)
* T28A/G33W/S107Y -> 56 µM (2 of 3 replicates; controls 3 of 9)
* G26H/I34H/S107H -> nd (0 of 3 replicates; controls 7 of 9)
* S107H -> 35 nM (3 of 3 replicates; controls 0 of 9)
* G33Y/V50N/S107N -> nd (0 of 3 replicates; controls 4 of 9)
* V50A/Y60H/S107G -> 10 µM (1 of 3 replicates; controls 1 of 9)
* T28W/F59N/S107E -> 770 nM (1 of 3 replicates; controls 1 of 9)
* G26P/F59K/S107H -> 10 µM (1 of 3 replicates; controls 1 of 9)
* I34G/S35W/S107I -> nd (0 of 3 replicates; controls 0 of 9)
* D106G/S107N -> 2.4 µM (1 of 3 replicates; controls 2 of 9)
* Y60F/D62K/S107T -> 350 nM (2 of 3 replicates; controls 1 of 9)
* S53R/D54R/S107T -> nd (0 of 3 replicates; controls 0 of 9)
* F27V/Y52M/S107F -> nd (0 of 3 replicates; controls 0 of 9)
* G33A/T58Y/S107R -> nd (0 of 3 replicates; controls 0 of 9)
* G55Y/S107K -> nd (0 of 3 replicates; controls 0 of 9)
* V50Y/S107D -> nd (0 of 3 replicates; controls 0 of 9)
* T58M/K65E/S107Y -> 180 nM (3 of 3 replicates; controls 2 of 9)
* T58S/S107Q -> 87 nM (3 of 3 replicates; controls 4 of 9)
* Y32S/G103F/S107E -> 230 nM (1 of 3 replicates; controls 1 of 9)
* L29S/Y32K/S107V -> 66 µM (1 of 3 replicates; controls 1 of 9)
* R100T/F105S/S107A -> 95 µM (3 of 3 replicates; controls 7 of 9)
* S31E/R100Q/S107C -> 8.2 nM (3 of 3 replicates; controls 0 of 9)
* G26P/L29W/S107K -> nd (0 of 3 replicates; controls 1 of 9)
* Y52R/D54S/S107A -> 8.1 µM (2 of 3 replicates; controls 3 of 9)
* S35Y/D54T/S107D -> 4.9 µM (1 of 3 replicates; controls 1 of 9)
* S35P/A101K/S107W -> 20 µM (1 of 3 replicates; controls 1 of 9)
* G61S/V64F/S107M -> 380 nM (3 of 3 replicates; controls 1 of 9)

For reference, the parent read 4.4 nM as the reference entry and 13 µM (one replicate of three) as a member of this library.